For this test, the target named is recombinant human S1P1 (Homo sapiens (Human), UniProt P21453). Briefly: [32P]S1P competitive binding assay on cell membranes.

Sequences of proteins named here, by UniProt entry; tags and fusion partners are left off.
UniProt P21453, whole entry: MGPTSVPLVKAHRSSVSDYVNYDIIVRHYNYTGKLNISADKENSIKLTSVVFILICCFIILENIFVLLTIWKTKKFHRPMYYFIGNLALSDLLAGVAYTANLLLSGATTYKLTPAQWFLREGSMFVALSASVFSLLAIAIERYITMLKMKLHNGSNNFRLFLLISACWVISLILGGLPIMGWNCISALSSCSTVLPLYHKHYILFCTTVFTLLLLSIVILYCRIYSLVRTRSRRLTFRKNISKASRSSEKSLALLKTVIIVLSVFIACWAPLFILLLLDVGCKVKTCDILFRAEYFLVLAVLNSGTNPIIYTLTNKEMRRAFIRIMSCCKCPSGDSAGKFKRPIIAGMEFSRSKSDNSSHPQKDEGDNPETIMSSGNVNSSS

Usually IC50 stands for the concentration that gives 50% inhibition.

Where two headings read alike, the source gives them in different places.

Take `OCc1ccc(-c2noc(-c3ccc(OCCF)c(C(F)(F)F)c3)n2)cc1` [Compound 8c, (4-(5-(4-(2-Fluoroethoxy)-3-(trifluoromethyl)phenyl)-1,2,4-oxadiazol-3-yl)phenyl)methanol]: the IC50 by setting is: (Table 9, avg, n = 2-3, read-out: S1P1 IC50, second value in parentheses (average) (converted)) 10.5 nM; (competition against [32P]S1P, membranes with recombinant human S1P1, mean ± SD, listed as TZ35104, read-out: S1P1 IC50 ± SD) 6.67 ± 0.7 nM.

(Values after patent US10676467B2 (Washington University, priority 2017, dated 2020).)
